# Target: M3 receptor (Homo sapiens, UniProt P20309)
# Protein sequences, listed by entry. Tags and fused reporters are not part of them.
# UniProt P20309, whole entry: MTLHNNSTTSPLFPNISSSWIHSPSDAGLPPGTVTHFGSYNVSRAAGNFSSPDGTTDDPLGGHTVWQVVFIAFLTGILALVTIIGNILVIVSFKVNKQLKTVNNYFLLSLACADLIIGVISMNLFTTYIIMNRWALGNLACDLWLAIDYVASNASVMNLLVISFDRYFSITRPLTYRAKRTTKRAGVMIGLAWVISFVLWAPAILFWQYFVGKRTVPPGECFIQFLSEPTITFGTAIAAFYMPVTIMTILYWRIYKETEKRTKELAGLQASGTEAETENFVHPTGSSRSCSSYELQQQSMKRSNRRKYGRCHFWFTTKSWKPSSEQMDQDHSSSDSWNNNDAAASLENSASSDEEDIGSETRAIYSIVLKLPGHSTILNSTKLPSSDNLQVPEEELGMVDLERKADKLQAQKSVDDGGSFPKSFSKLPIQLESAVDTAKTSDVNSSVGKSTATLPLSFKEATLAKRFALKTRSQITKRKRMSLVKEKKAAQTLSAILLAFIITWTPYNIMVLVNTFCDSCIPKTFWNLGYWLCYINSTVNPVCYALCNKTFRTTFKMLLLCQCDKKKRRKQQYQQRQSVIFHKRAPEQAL
# Experiment: two-step DMR assay, pure compounds, on endogenous M3 receptor in HT-29 cells
# Details: for IC50: read-out: IC50 value on M3, inhibition of DMR of 16 μM acetylcholine at 30 min post-stimulation after 1 h pretreatment, mean ± s.d., n = 4
Structure (SMILES),"efficacy and potency of inhibition of the acetylcholine DMR (in words) (16 μM acetylcholine, second step)","IC50 value on M3 (inhibition of DMR of 16 μM acetylcholine at 30 min post-stimulation after 1 h pretreatment, mean ± s.d., n = 4)",IC50,antagonistic activity on M3 receptor (in words) (two-step DMR assay),reduction of activity on M3 by removal of methyl at R3 (3 vs 11 and 4 vs 7),decrease of potency on M3 relative to compound 1 (structure-activity comparison centered with 1)
CN1[C@H]2C[C@H](OC(=O)[C@@](O)(CO)c3ccccc3)C[C@@H]1[C@@H](O)C2,does not fully inhibit the acetylcholine DMR at the highest dose,weak,69900 nM,nearly inactive,–,–
CN1[C@@H]2CC[C@H]1C[C@@H](OC(=O)[C@@](O)(CO)c1ccccc1)C2,–,–,490 nM,–,–,–
O=C(O[C@H]1C[C@@H]2N[C@H](C1)[C@H]1O[C@H]12)[C@@](O)(CO)c1ccccc1,–,–,1110 nM,–,< 5 fold,approximately 25 fold
